The test deals with chronic obstructive pulmonary disease model in rats.

The results in this text go back to patent US20250387388A1, “COMPOUND AS TRK INHIBITOR AND/OR RET INHIBITOR AND USE THEREOF” (Medinno Pharmaceutical Technology (Zhuhai) Co., Ltd., priority 2022, published 2025).

Read-outs that look alike come from different tables or passages of the source.

As for `CCc1cc(O)c(F)cc1-c1ccc2c(-c3nc4c([nH]3)CN(C(=O)C3CC3)C4)n[nH]c2c1` [MDI-1233, cyclopropyl (2-(6-(2-ethyl-5-fluoro-4-hydroxyphenyl)-1H-indazol-3-yl)pyrrolo[3,4-d]imidazol-5(1H,4H,6H)-yl)ketone], the “Therapeutic effect on the COPD model in rats” value (MDI-1233 1, 3, 10 mg/kg) is recorded as “dose-dependent therapeutic effect”. For the same compound, for the setting “MDI-1233 1, 3, 10 mg/kg nasal drops twice a day, 30 days, positive control 0.1 mg/kg/d”, the “IL-1β in serum and alveolar lavage fluid (ELISA)” value was “could also down-regulate its expression”. Besides, the “Lung tissue morphology and inflammatory cell infiltration (HE staining)” value runs as follows: (MDI-1233 1, 3, 10 mg/kg nasal drops twice a day, 30 days, positive control 0.1 mg/kg/d, vs. COPD model group) “reduced compared to the COPD model group”; (high-dose MDI-1233 (10 mg/kg) nasal drops twice a day, 30 days) “showed the best effects”.
